Test results as given in patent US12595288B2 (priority 2020, dated 2026).

System: DDAVP-induced hyponatremia in Sprague-Dawley rats
Details: rat, in vivo

SMILES: Cc1ccccc1C(=O)Nc1ccc(C(=O)N2CCCC(O)c3cc(Cl)ccc32)c(C)c1 (stereo not shown) [tolvaptan]
- mean value for sodium (plasma): 137.6 ± 3.3 mM
